Assay results published in patent publication EP4831181A1, “SALT FORM OF TAAR1 LIGAND AGONIST, CRYSTAL FORM, PREPARATION METHOD, AND USE” (dated 2026).

Assays:
[1] = Solid-state stability study (XRPD and HPLC); settings: for Purity: HPLC, initial purity 99.95%
Experimental: A stability study of the Crystal Form A of the maleate salt of the compound of Formula I was conducted under high temperature (60 °C), high humidity (25 °C/92.5% RH), light exposure (25 °C/4500 Lux), and accelerated (40 °C/75% RH) conditions. Samples were taken for XRPD characterization and HPLC analysis at 7 and 15 days, respectively. […] Table 15. The results of a stability study of the Crystal Form A of the maleate salt of the compound of Formula I

[2] = Pharmacokinetic study in rats (intravenous and intragastric); settings: SD rats; for AUClasl: plasma
Experimental: Rats: SD rats weighing 200-250 g Reagents: acetonitrile, MERCK; methanol, MERCK; formic acid, Sigma; tolbutamide, Sigma. Instruments: water purification equipment, Millipore; electronic balance, METTLER TOLEDO; high-speed benchtop centrifuge, Thermo; water-bath thermostatic shaker, Shanghai Yiheng Technical Co., Ltd.; vortex shaker, Thermo; liquid chromatography-mass spectrometry, AB SCIEX. Method: SD rats were dosed intravenously (IV) and intragastrically (IG), with 3 SD rats in each group. The compound of Formula I was administered, with DMSO and Tween 80 as vehicles. Administration doses: 2 mg/kg for intravenous administration and 5 mg/kg for intragastric administration. Whole blood samples were collected at 0, 5 min (intravenous), 15 min, 30 min, 1 h, 2 h, 4 h, 6 h, 8 h, 12 h, and 24 h, respectively, placed into heparinized EP tubes, and centrifuged at 13,500 rpm for 10 min to separate plasma. After pretreatment, the plasma samples were analyzed by LC-MS/MS to determine the concentration of the test compound in the plasma samples. Pharmacokinetic parameters of the compound of Formula I after intravenous and intragastric administration to SD rats

[3] = Dynamic vapor sorption (DVS)
Experimental: Dynamic vapor sorption analysis was performed on a DVS Intrinsic Plus instrument (SMS, UK). The test employed a gradient mode. The humidity was changed from 0% to 95% and back to 0%. The humidity change for each gradient was 10% in the range of 0% to 90%. The gradient endpoint was judged using dm/dt and was defined as a dm/dt of less than 0.002% lasting for 10 min, or each gradient lasting for a maximum of 180 min. After the test was completed, the sample was analyzed by XRPD to determine whether the solid form had changed.
About 1 g of the compound of Formula I was weighed out and added to a reaction flask, and 10 mL of isopropanol was added. After complete dissolution, 1 equivalent of maleic acid was added. The mixture was left to react at room temperature, and crystallization was monitored in real time. After a solid precipitated, the mixture was left to react for 30 min with the temperature maintained at 25 °C, then heated to 50 °C and stirred for 2 h with the temperature maintained, and then cooled to 25 °C and stirred overnight. The reaction solution was filtered, and the filter cake was washed and dried to give the Crystal Form A of the maleate salt of the compound of Formula I (1.44 g, yield: 90.1%, chemical purity: 99.86%). […] According to the above characterization results, it can be seen that the Crystal Form A of the maleate salt was an anhydrous crystal form. When the amount of maleic acid was 0.5-1.5 equivalents, the Crystal Form A of the maleate salt could be obtained, with a molar ratio of maleic acid to the compound of Formula I of about 1:1. Table 1. XRPD pattern analysis data for the Crystal Form A of the maleate salt of the compound of Formula I

[4] = Accelerated 40 °C/75% RH, 7 days
[5] = Accelerated 40 °C/75% RH, 15 days
[6] = High humidity 25 °C/92.5% RH, 7 days
[7] = High humidity 25 °C/92.5% RH, 15 days
[8] = High temperature 60 °C, 15 days
[9] = Light exposure 25 °C/4500 Lux, 7 days
[10] = Light exposure 25 °C/4500 Lux, 15 days

SMILES: c1cc2c(s1)[C@@H]1CNCCN1CC2
- XRPD result [1, 4]: Crystal form A
- Purity [1, 4]: 99.94%
- XRPD result [1, 5]: Crystal form A
- Purity [1, 5]: 99.91%
- XRPD result [1, 6]: Crystal form A
- Purity [1, 6]: 99.93%
- XRPD result [1, 7]: Crystal form A
- Purity [1, 7]: 99.90%
- XRPD result ([1]; High temperature 60 °C, 7 days): Crystal form A
- Purity ([1]; High temperature 60 °C, 7 days): 99.93%
- XRPD result [1, 8]: Crystal form A
- Purity [1, 8]: 99.89%
- XRPD result [1, 9]: Crystal form A, a slight yellowing of the sample
- Purity [1, 9]: 99.85%
- XRPD result [1, 10]: Crystal form A, a slight yellowing of the sample
- Purity [1, 10]: 99.79%
- AUClasl ([2]; IG 5mg/kg): 9.945 ± 1.213 µM·h
- Cl_obs ([2]; IV 2mg/kg): 28.8 ± 3.25 mL/min/kg
- Vss_obs ([2]; IV 2mg/kg): 2.91 ± 0.68 L/kg
- AUClasl ([2]; IV 2mg/kg): 5.971 ± 0.642 µM·h
- hygroscopicity ([3]; DVS, 25 °C): nearly no hygroscopicity
- desorption weight loss ([3]; DVS, 25 °C, 0% RH): about 0.10%
- adsorption weight increase ([3]; DVS, 25 °C, 80% RH): about 0.03%
- desorption weight increase ([3]; DVS, 25 °C, 80% RH): 0.03%
- adsorption weight increase ([3]; DVS, 25 °C, 95% RH): about 0.18%
- crystal form (XRPD) before and after DVS testing ([3]; XRPD before and after DVS): did not change
